Measurements: US10131558B1, “Compositions, methods, and/or systems for managing sulfide” (priority 2016, dated 2018)

Experiment: Treatment of sulfides in municipal wastewater using ferric chelants and hydrogen peroxide
Conditions: no H2O2, 30 min

Which “Sulfide Remaining” value (Series One, start 25.4 ppm, chelant only) does the source give for `O=C([O-])CN(CCO)CC(=O)[O-].[Fe+3]` [Fe-HEIDA] here?
Its value is 25.2 ppm.

What about the “Sulfide Remaining” value (Series Two, start 42.3 ppm, chelant only at 20 ppm) of the same molecule?
The value was 41.5 ppm.
